Results on 3 molecules are retold here after patent US20040248802A1, “Poly-Glu, Tyr for neuroprotective therapy” (published 2004).

Series [1] deals with MK-801-injected mice. Nature of the series: MK-801-induced cognitive impairment, Morris water maze (MWM).
The subject of series [2] is Treg cells. Nature of the series: Cytokine profile of Treg cells upon incubation with poly-Glu,Tyr.
Series [3] concerns HD R6/2 transgenic mice. Nature of the series: Huntington's disease model: HD R6/2 transgenic mice. The conditions noted are these: expected.
Series [4] deals with axotomized motor neurons. As to the kind of experiment: Facial nerve axotomy (acute motor neuron disorder model). Conditions: facial nerve axotomy; vs other groups; expected.
Series [5] concerns RGCs. Nature of the series: Acute glaucoma model (transient IOP elevation), RGC survival.
For series [6], the system named is ALS mice SOD1. Nature of the series: ALS model: transgenic mutant SOD1 mice, muscle strength test. The conditions noted are these: expected.
Series [7] has as its system retinal ganglion cells (RGCs). As to the kind of experiment: In vivo model of glutamate toxicity: RGC survival after intravitreal glutamate injection.
Series [8] deals with spinally contused rats. As to the kind of experiment: Spinal cord contusion (NYU impactor), open field BBB locomotor score.
Series [9] relates to RGCs. As to the kind of experiment: Chronic glaucoma model (laser-induced high IOP), RGC survival.
The subject of series [10] is rats subjected to permanent MCA occlusion. Nature of the series: Permanent middle cerebral artery occlusion (MCAO) model of stroke. The conditions noted are these: for ischemia-induced weight loss (body weight): day 8 to day 15, vs PBS, p<0.05; for improvement in NSS vs days 1-2: 1, 1.5, 2 weeks; for improvement in NSS, comparison among doses: following 2 weeks; for neurological outcome (NSS): up to 14 days post-occlusion.

Series [11] has as its system CD4+CD25+ regulatory T cells (Treg). Conditions: TregYE co-cultures with 20 μg/ml added (TregYE+YE).
Series [12] concerns ALS patients. Conditions: in vivo; cited from earlier work.
Setting [13] is: 20 μg/ml, conditioned media collected 24 hours after incubation.

Turning to poly-Glu,Tyr, the “task acquisition in the MWM (escape latency)” value in [1] (25 μg/mouse SC one week before MK-801 0.1 mg/kg i.p., acquisition phase, MK-801 impaired PBS-treated but not immunized mice) was “decreasing latencies in successive trials”. Further, the “swimming strategies in the MWM” value in series [1] (25 μg/mouse SC one week before MK-801 (0.1 mg/kg i.p., 15 min before test), first day, vs PBS) was “more methodical swimming strategies than the controls”. Moreover, the “IFN-γ secretion by Treg cells” value in [2] (setting [13]) is “up regulation”. Besides, the “IL-2 secretion by Treg cells” value in [2] (setting [13]) was “up regulation”. The “IL-10 secretion by Treg cells” value in series [2] (setting [13]) was “down regulation”. For the same molecule, the “TGF-β secretion by Treg cells” value in series [2] (setting [13]) is on record as “up regulation”. Also, in series [2] (in the presence of poly-Glu,Tyr), the “proliferation of the Treg cells” value was “increased proliferation”. Also, the “mortality and onset of disease” value in [3] (HD R6/2 mice) was “delay mortality and onset of disease”. In series [3] (any of the doses vs control group), the “body weight loss following immunization” value is recorded as “No body weight loss”. Further, the rotarod performance entry in series [3] (follow-up period 8-14 weeks, vs untreated mice) is reported as “improve the rotarod performance”. Further, the “dead neurons in brain” value in [3] (vs non-treated mice) is on record as “fewer dead neurons”. Further, the “whisking activity (amplitude, angular velocity, angular acceleration during protraction)” value in series [4] was “significantly better whisking activity”. The “RGC cell count per mm^2 in right (injured) eye” value in [5] (eye drops applied on contralateral left eye, Lewis rats, two weeks later, control 1454±221, p<0.01) is 1908±252 per mm^2. For the same molecule, in series [5] (eye drops as in Example 8, high IOP 1 hour, assessed two weeks later, control 58.58%±7.42, p<0.01), the “death rates of RGCs” value was 31.5±4.73%. The “RGC loss induced by transient IOP elevation” value in series [5] (five eye drops (1 mg each) at 5 minute intervals immediately after removal of the needle) and in series [5] (subcutaneous injection 500 μg immediately after removal of the needle) was “significantly reduced RGC loss” each time. The “hanging time on rotating vertical rod” value in series [6] (25-500 μg in PBS, vs non-immunized ALS mice) is “longer hanging time than the non-immunized mice”. Further, the life span entry in series [6] (transgenic mice) is recorded as “prolonged life span”. For the same molecule, the “loss of body weight” value in series [6] (transgenic mice) is “slower loss of body weight”. In addition, the “rate of muscle strength decline” value in [6] (vs non-immunized ALS mice) is “significantly lower rate of muscle strength decline”. The “retention of motor power” value in series [6] (vs non-immunized animals) is on record as “retain motor power for a longer period of time”. The “RGC survival, percentage of normal eyes” value in series [7] (25 μg/mouse in PBS without adjuvant 7 days prior to intraocular glutamate, 7 days after exposure, non-treated 34%) was 68%. Further, in series [7] (100 μg emulsified in CFA SC 7 days prior to glutamate (400 nmole) into vitreous, 7 days after, vs CFA-PBS (p=0.007) and non-immunized (p=0.01)), the “glutamate-induced RGC death” value was “significantly attenuated”. For the same molecule, the “RGC survival vs negative control group” value in [7] (225 μg/mouse in PBS without adjuvant 7 days prior to intraocular glutamate, 7 days after exposure, p<0.001) was “higher than the negative control group”. For the same molecule, the “hind limb motor recovery, BBB locomotor score” value in series [8] (100 μg/rat in CFA SC immediately after injury and 7 days later, contusion at T8, vs PBS/CFA) is listed as “tendency to recover better than PBS-treated rats”. Besides, the “recovery of locomotor activity, BBB locomotor score” value in series [8] (500 μg emulsified in CFA SC up to 1 hour after contusion at T9, vs PBS/CFA and PBS) was “recovered significantly better”. Further, the “functional outcome, open-field motor score (BBB scale) in incomplete spinal cord injury (ISCI)” value in series [8] (immunization in CFA SC within one hour after contusion at T8, R16 30 μg, A91 100 μg, poly-Glu,Tyr 100 μg, SPD rats) is reported as “significantly improved functional outcome”. For the same molecule, the “number of surviving RGCs” value in series [9] (500 μg emulsified with CFA one hour after first laser treatment, SPD rats, vs non-immunized (PBS alone)) is listed as “significant increase in the number of surviving RGCs”. Moreover, the “average death rate of RGCs (mean±SD), percentage of normal eyes” value in series [9] (eye drops 10 mg/ml in PBS, 10 drops of 50 μl, after second laser session, 3 weeks after IOP elevation, control 48.52%±1.68, p<0.0001) is listed as 27.33%±4.73. Moreover, the “RGC death / survival after exposure to high IOP” value in series [9] (immunization in CFA SC immediately after first laser session, R16 30 μg, A91 100 μg, poly-Glu,Tyr 100 μg, Lewis rats) is given as “significantly reduced RGC death”. Also, the “ischemia-induced weight loss (body weight)” value in series [10] (150 μg 6 hours post-MCA occlusion), in series [10] (500 μg 6 hours post-MCA occlusion) and in series [10] (1000 μg 6 hours post-MCA occlusion) was “significantly lower than of the control group” each time. In addition, the “improvement in NSS vs days 1-2” value in [10] (150 μg per rat single SC in PBS immediately after MCA occlusion), in [10] (500 μg per rat single SC in PBS immediately after MCA occlusion) and in [10] (1000 μg per rat single SC in PBS immediately after MCA occlusion) was “greater improvement in the neurological score than the control group” throughout. The “improvement in NSS, comparison among doses” value in series [10] (150 μg/rat immediately after MCA occlusion) and in series [10] (500 μg/rat immediately after MCA occlusion) was “greatest improvement” in each case. Besides, in series [10] (500 μg/rat immediately after MCA occlusion, 48 hours after occlusion, p=0.047 ANOVA), the “hippocampal neurons: ischemia-induced degeneration (necrotic cells in CA1, CA2, CA3)” value is reported as “protected significantly”. Besides, in [10] (permanent MCAO in rats), the infarct volume result is given as “no effect”. Besides, the “neurological outcome (NSS)” value in series [10] (single injection 500 μg/rat SC 6 hours post MCAO), in series [10] (single injection 500 μg/rat SC 24 hours post MCAO) and in [10] (single injection 500 μg/rat SC immediately post MCAO) was “significantly improved neurological outcome” each time. Also, the “Teff proliferation in co-cultures” value in [11] was “significantly higher Teff proliferation”.

Take `Nc1nc2ccc(OC(F)(F)F)cc2s1`: the “prolongation of the life of ALS patients” value in series [12] is on record as “approximately three”.

For `C[C@]12N[C@H](Cc3ccccc31)c1ccccc12`, the “performance of a spatial memory task in the MWM” value in series [1] (MK-801 0.1 mg/kg i.p. 15 min before test) is recorded as “significantly impaired”.
